Test results as given in publication PMC9762789, “Chromone-based monoamine oxidase B inhibitor with potential iron-chelating activity for the treatment of Alzheimer’s disease” (Journal of Enzyme Inhibition and Medicinal Chemistry, 2022).

Chains of the proteins cited; added tags and fusions are not shown.
UniProt P21397, whole entry: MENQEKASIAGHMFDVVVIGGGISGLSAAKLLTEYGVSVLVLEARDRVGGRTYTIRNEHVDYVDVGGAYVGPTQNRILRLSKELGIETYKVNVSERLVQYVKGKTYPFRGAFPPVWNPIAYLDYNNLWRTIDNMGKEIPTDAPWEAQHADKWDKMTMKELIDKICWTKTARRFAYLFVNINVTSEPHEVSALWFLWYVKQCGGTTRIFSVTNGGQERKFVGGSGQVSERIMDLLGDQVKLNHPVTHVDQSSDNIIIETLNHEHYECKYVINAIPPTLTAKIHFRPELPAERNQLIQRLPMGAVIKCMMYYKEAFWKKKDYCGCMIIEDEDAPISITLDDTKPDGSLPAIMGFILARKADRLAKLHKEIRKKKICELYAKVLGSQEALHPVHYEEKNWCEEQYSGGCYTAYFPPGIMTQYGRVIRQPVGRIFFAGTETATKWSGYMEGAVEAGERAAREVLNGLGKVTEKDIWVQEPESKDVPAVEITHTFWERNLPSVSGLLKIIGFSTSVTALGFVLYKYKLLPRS

Biological target: T1, Human MAO-A (Homo sapiens, UniProt P21397)
T1 construct: purchased Sigma-Aldrich
Experiment: hMAO-A inhibition assay
Type: biochemical
Procedure: Further, the inhibitory activity of compounds against hMAO-A isoform was tested and calculated as a selectivity index [Selectivity index (SI): IC50 (hMAO-A)/IC50 (hMAO-B)].
The reagents and enzymes (Human MAO-B and Human MAO-A) applied in this experiment were purchased from Sigma-Aldrich. According to the manuals, all components (substrate solution and enzyme solution) are diluted and placed aside for use. The detailed process has been mentioned in our early work[34].

With `C#CCN(C)Cc1ccccc1` [Pargyline] the IC50 was 4.184 ± 0.0071 µM.
